Patent US8586369B2, “Ion channel-forming peptides” (The Regents of the University of California, priority 2007, dated 2013)

Experiment: Stability toward hydrolysis in acidic and basic solutions (HPLC analysis)
Format: physicochemical

Substance: gramicidyl glycine
- hydrolysis in acidic solution (pH 3.5, 23° C.): not observed after 24 hours
- hydrolysis in basic solution (pH 10.4, 23° C., HPLC analysis): observed after 3 hours
